## Apparent affinities of Ab-14 variants for a coronavirus HR2 peptide

From the AlphaSeq antibody data of Engelhart et al. 2022 (doi:10.1038/s41597-022-01779-4), copy in the FLAb collection.

Target: peptide PDVDLGDISGINAS, taken from heptad repeat 2 (HR2) of SARS-CoV-2 spike.

The variants keep the heavy chain, the linker and the frameworks of Ab-14 (scFv order VH, the linker GGGGSGGGGSGGGGS, VL).
VH: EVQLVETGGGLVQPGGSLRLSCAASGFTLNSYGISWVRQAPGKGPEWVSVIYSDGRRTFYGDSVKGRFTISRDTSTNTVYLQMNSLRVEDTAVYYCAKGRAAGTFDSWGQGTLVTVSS
VL: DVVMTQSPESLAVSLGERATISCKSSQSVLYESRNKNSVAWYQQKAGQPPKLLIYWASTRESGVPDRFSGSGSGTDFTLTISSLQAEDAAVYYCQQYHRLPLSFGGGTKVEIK

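Phage display of a naive human antibody library on the peptide gave the parent. Library AAYL50 holds single substitutions and randomly drawn double and triple substitutions in the CDRs. AlphaSeq pools MATa yeast showing the antibodies with MATalpha yeast showing the peptide. The frequency of each diploid, read from paired DNA barcodes, reflects how well the two displayed proteins bind. A regression on co-assayed BCL2-family reference pairs converts the normalised counts of each replicate to an apparent Kd. There are three technical replicates.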

Positions count from residue 1 of the parent VL; Y31P puts P in place of Y.
Kd is apparent (estimated from mating counts) and averaged on the log scale over replicates with a signal. Smaller is tighter.
A pair that was not seen in any replicate is written "nd"; this usually means weak binding, but a binder can also be missed.

| changes | Kd (apparent) | seen in |
|---|---|---|
| Y31P+S33W+S58K | 41 nM | 3 of 3 |
| Y31V+S38H+W56A | 4.8 nM | 3 of 3 |
| S26W+R99T | 37 nM | 3 of 3 |
| S38T+A57T+R60P | 2.4 µM | 1 of 3 |
| R60G+S62F+S103F | nd | 0 of 3 |
| H98P+L100F+S103G | nd | 0 of 3 |
| Q27V+E32R+A40P | 290 µM | 1 of 3 |
| K24D+R60I+S103R | 30 nM | 1 of 3 |
| A40V+W56M | nd | 0 of 3 |
| V39P+S62H+Q96H | 7.2 µM | 2 of 3 |
| L30E+R34F+S103H | 12 nM | 3 of 3 |
| W56P+A57G+S103P | nd | 0 of 3 |
| S25L+A40F+S62H | nd | 0 of 3 |
| N37Y+S62W+S103G | 10 nM | 3 of 3 |
| L30G+S33W+S62Q | 8.0 nM | 3 of 3 |
| N37L+T59S+S103P | nd | 0 of 3 |
| S25V+Q27P+K36F | 1.0 nM | 3 of 3 |
| Q27C+L30H+R60C | 65 µM | 1 of 3 |
| E32H+N35L+A57I | 110 µM | 2 of 3 |
| N37G+V39W+W56F | nd | 0 of 3 |
| K24C+S28M+S33M | 8.9 µM | 1 of 3 |
| S28F+S33G+Q96A | 5.5 nM | 3 of 3 |
| R60N+H98C | 6.2 µM | 2 of 3 |
| R60P+P101C+S103P | nd | 0 of 3 |
| R34E+A40M+A57F | 3.4 µM | 1 of 3 |
| Q95Y+Q96L+L102N | 39 µM | 1 of 3 |
| S38P+S58M+H98C | nd | 0 of 3 |
| S28E+E61L+L100F | 43 nM | 3 of 3 |
| Q27L+V39S+S58K | nd | 0 of 3 |
| Q27S+N37T+A40Y | nd | 0 of 3 |
| S26Q+K36S+A40P | nd | 0 of 3 |
| Q27E+R34C+H98E | 18 nM | 3 of 3 |
| V29R+N37L+S38Q | 2.8 µM | 1 of 3 |
| S25D+S26V+L100H | 1.4 µM | 1 of 3 |
| V29R+S62A+H98V | 5.1 µM | 3 of 3 |
| W56S+R60Y+H98E | nd | 0 of 3 |
| V29H+K36W+S62Y | 10 nM | 3 of 3 |
| V29N+L30D+S33Q | 11 nM | 3 of 3 |
| R34P+S58H+P101V | 43 µM | 2 of 3 |
| Y31C+Q96M+R99W | 18 µM | 1 of 3 |
| R34D+W56L+Q96V | nd | 0 of 3 |
| S28Q+S62N+P101Y | 4.2 µM | 1 of 3 |
| S26H+N35Y+V39A | nd | 0 of 3 |
| L30W+S58A+Q95E | nd | 0 of 3 |
| R99I+P101H | nd | 0 of 3 |
| L30I+T59M+R99H | 32 nM | 3 of 3 |
| N35A+V39M+A57V | nd | 0 of 3 |
| K24A+S28Q+S38L | 26 µM | 2 of 3 |
| S26N+Y31P | 610 nM | 3 of 3 |
| S26C+S28T+V39D | 80 µM | 2 of 3 |
| Q27F+E32C+H98P | 2.3 µM | 1 of 3 |
| S25N+W56G+R99M | 390 pM | 3 of 3 |
| S28F+K36R+Q95C | nd | 0 of 3 |
| A57P+E61T+H98W | 480 nM | 1 of 3 |
| S28W+R99I | 34 nM | 3 of 3 |
| L30C+Q96W+P101S | 470 nM | 3 of 3 |

Top 3 of the variants detected in all replicates, tightest first:

changes	Kd (apparent)	seen in
S25N+W56G+R99M	390 pM	3 of 3
S25V+Q27P+K36F	1.0 nM	3 of 3
Y31V+S38H+W56A	4.8 nM	3 of 3

Three control strains display no target. For library AAYL50, 18% of the pairings with them gave a signal, with a median of 15 µM and one signal in twenty below 970 nM, so weak values seen in few replicates may be background.
In this assay the parent's reference entry averaged 4.4 nM; its copy inside this library read 48 nM.